# Data: article PMC6149722, “Comparison of the Binding of Reversible Inhibitors to Human Butyrylcholinesterase and Acetylcholinesterase: A Crystallographic, Kinetic and Calorimetric Study” (Molecules : A Journal of Synthetic Chemistry and Natural …, 2017)
# By UniProt entry, the sequences of proteins in these tests, tags left out. Residues count along the entry.
# UniProt P22303, 32-574 limits assumed: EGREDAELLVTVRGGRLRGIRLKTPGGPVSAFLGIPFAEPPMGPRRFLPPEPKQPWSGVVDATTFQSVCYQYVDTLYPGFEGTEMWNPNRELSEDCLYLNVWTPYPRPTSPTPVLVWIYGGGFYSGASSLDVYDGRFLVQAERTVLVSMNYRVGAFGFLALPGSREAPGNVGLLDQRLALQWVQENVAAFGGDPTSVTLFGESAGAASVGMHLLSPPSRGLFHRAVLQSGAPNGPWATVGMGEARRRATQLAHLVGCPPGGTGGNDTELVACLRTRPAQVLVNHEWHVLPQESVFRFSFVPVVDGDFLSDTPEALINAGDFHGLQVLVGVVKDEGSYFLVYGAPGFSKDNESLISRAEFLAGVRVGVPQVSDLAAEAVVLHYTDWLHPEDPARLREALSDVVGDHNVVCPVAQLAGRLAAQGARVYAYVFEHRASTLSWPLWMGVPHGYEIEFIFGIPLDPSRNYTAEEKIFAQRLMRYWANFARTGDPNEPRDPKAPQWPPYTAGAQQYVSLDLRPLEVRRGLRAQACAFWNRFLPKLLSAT
# Target: hAChE (Homo sapiens, UniProt P22303)
# Assay: Isothermal titration calorimetry (ITC) with hAChE
# Type: binding
# Details: 25 °C, pH 8.0
structure (smiles),measurement,value
CC[N+](C)(CC)CCC[n+]1c(-c2ccccc2)c2cc(N)ccc2c2ccc(N)cc21,"ΔG (±SD), Gibbs free energy of binding",-29.6 ± 0.3 kJ/mol
